In PMC12010937, “Evaluation of FXR Activity in Pollutants Identified in Sewage Sludge and Subsequent in Vitro and in Vivo Characterization of Metabolic Effects of Triphenyl Phosphate” (Environmental Health Perspectives, 2025):

How the values were obtained:
[1] = biological target: T1, human FXR-LBD (GST-FXR-LBD) (Homo sapiens, UniProt Q96RI1); test: HTRF coactivator recruitment assay, antagonist mode (in the presence of 50 μM CDCA); assay type: biochemical
T1 construct: the human FXR-LBD (residues 234–472) was expressed as a GST fusion protein GST-FXR-LBD; made in house; host or cells: E. coli BL21(DE3)
T1 sequence (Q96RI1 234-472 isoform Q96RI1-2): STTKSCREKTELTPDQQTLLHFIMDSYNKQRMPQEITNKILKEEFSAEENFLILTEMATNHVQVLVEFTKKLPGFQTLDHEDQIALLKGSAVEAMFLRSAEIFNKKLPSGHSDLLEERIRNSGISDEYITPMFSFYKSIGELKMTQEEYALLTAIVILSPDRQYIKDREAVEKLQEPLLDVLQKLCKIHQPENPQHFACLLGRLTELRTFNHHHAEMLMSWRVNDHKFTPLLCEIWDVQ

[2] = biological target: T1, human FXR-LBD (GST-FXR-LBD); test: HTRF coactivator recruitment assay, agonist mode; assay type: biochemical

## CC(C)COP(=O)(OCC(C)C)OCC(C)C [TIBP, triisobutyl phosphate]
[1]
  Relative activity, antagonist mode: 9.18%
[2]
  Relative activity, agonist mode: 0.84%
